In patent US8586588B2, “Aryl pyridazinone derivatives and their use as H3 receptor ligands” (Cephalon, Inc., priority 2006, dated 2013) one finds Ki data, which are given here for two compounds.

Chains of the proteins cited; added tags and fusions are not shown. Lines headed by an entry give the natural chain unless they say otherwise; changes in a name come on top.
UniProt Q9Y5N1: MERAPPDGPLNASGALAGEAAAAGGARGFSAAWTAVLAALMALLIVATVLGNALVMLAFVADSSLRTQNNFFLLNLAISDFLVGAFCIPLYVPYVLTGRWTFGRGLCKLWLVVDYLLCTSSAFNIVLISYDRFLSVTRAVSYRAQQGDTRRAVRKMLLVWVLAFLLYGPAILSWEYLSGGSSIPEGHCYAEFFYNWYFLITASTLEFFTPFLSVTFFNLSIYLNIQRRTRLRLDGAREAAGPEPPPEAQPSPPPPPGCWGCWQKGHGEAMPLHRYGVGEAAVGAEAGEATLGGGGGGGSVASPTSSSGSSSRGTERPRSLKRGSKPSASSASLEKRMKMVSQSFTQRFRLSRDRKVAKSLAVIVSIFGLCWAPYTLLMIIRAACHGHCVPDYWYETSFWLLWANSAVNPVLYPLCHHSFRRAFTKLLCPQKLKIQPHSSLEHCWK
UniProt Q9QYN8: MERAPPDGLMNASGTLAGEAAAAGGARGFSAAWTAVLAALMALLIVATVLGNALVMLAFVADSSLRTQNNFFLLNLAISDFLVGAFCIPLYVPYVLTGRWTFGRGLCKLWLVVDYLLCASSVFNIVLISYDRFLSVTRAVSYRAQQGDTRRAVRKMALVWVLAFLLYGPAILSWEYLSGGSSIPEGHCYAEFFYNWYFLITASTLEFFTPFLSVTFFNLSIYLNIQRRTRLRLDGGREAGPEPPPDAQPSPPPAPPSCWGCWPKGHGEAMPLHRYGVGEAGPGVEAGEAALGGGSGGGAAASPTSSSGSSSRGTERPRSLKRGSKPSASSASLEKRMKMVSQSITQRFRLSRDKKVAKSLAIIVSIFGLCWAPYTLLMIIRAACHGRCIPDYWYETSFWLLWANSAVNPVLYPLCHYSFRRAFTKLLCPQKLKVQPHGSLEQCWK

The target in one test is T1, human H3 receptor (Homo sapiens, UniProt Q9Y5N1).
T1 construct: expressed in transfected cells
The test is described as follows: Human H3 radioligand binding ([3H]-N-alpha-methylhistamine, CHO cell membranes, SPA). To be noted: Table B, binding constant as letter class. The procedure:
(§1) Cell pellets were resuspended in 5 mM Tris-HCl, pH 7.5 with […] and a cocktail of protease inhibitors (Complete Protease Inhibition Tablets, Roche Diagnostics). Cells were disrupted using a polytron cell homogenizer and the suspension was centrifuged at 1000×g for 10 minutes at 4° C. The pellet was discarded and the supernatant centrifuged at 40,000×g for 30 min at 4° C. This membrane pellet was washed in membrane buffer containing 50 mM Tris-HCl, pH 7.5 with 0.6 mM EDTA, 5 mM MgCl2 and protease inhibitors, recentrifuged as above and the final pellet resuspended in membrane buffer plus 250 mM sucrose and frozen at −80° C.
Membranes were resuspended in 50 mM Tris HCl (pH 7.4), 5 mM MgCl2, 0.1% BSA. The membrane suspensions (10 μg protein per well) were incubated in a 96 well microtiter plate with [^3H]-N-alpha-methylhistamine (approximately 1 nM final concentration), test compounds at various concentrations (0.01 nM-30 μM) and scintillation proximity beads (Perkin Elmer, FlashBlueGPCR Scintillating Beads) in a final volume of 80 μl for 4 hours at room temperature, protected from light. Non-specific binding was determined in the presence of 10 μM clobenpropit. Radioligand bound to receptor, and therefore in proximity to the scintillation beads, was measured using a MicroBeta scintillation counter.

The target of test [1] is T2, rat histamine H3 receptor (Rattus norvegicus, UniProt Q9QYN8).
T2 construct: encoding the entire 445-amino-acid rat histamine H3 receptor; expressed in transfected cells
In words: Rat H3 radioligand binding ([3H]-N-alpha-methylhistamine, CHO-A3 cell membranes, SPA). The conditions noted are these: Table B, binding constant as letter class. The procedure:
as §1, with “This was engineered into the pIRES-neo3 mammalian expression vector, which was stably transfected into the CHO-A3 cell line (Euroscreen, Belgium), followed by clonal selection by limiting dilution. Cells were harvested and cell pellets were frozen (−80° C.). Cell pellets” for “Cell pellets”
Membranes were resuspended in 50 mM Tris HCl (pH 7.4), 5 mM MgCl2, 0.1% BSA. […] Non-specific binding was determined in the presence of 10 μM clobenpropit. Radioligand bound to receptor, and therefore in proximity to the scintillation beads, was measured using a MicroBeta scintillation counter.

One may read the Ki as the dissociation constant of the complex between target and ligand, obtained from inhibition or displacement. Read a low Ki as higher affinity. For `C[C@H]1CCCN1CCCOc1ccc(-c2cnn(-c3ccccn3)c(=O)c2)cc1` [Example 109, 5-{4-[3-((S)-2-Methyl-pyrrolidin-1-yl)-propoxy]-phenyl}-2-pyridin-2-yl-2H-pyridazin-3-one], the Ki (at human H3 receptor; in test [1]) was 0.0001 to 0.1 µM in each case.

As to `C[C@@H]1CCCN1CCCOc1ccc(-c2cnn(-c3ccccn3)c(=O)c2)cc1` [Example 94, 5-{4-[3-((R)-2-Methyl-pyrrolidin-1-yl)-propoxy]-phenyl}-2-pyridin-2-yl-2H-pyridazin-3-one], the Ki (at human H3 receptor; in test [1]) was 0.0001 to 0.1 µM throughout.
